Measured values from US5374636A, “2,3-trans-disubstituted tropane compounds which have useful pharmaceutical utility” (NeuroSearch A/S, priority 1992, dated 1994).

Tested on: haloperidol-induced catalepsy
Assay: Haloperidol-induced catalepsy test for antiparkinsonian effects
Assay type: in vivo
Conditions: Rattus norvegicus, po; p.o. 1 h before haloperidol 0.25 mg/kg s.c.; read-out: Minimum effective dose (peroral administration)
Description: 1 ) a vertical wire netting (40×40 cm high).
2) a horizontal bar 9 cm above the floor
3) a 9 cm high block (bar)
4) a 3 cm high block (cork)

## COC(=O)[C@@H]1[C@@H](c2ccc3ccccc3c2)C[C@@H]2CC[C@H]1N2C [(1R,2R,3S)-2-carbomethoxy-3-(2-naphthyl)tropane]
  minimal effective dose: 1 mg/kg

## COC(=O)[C@@H]1[C@@H](c2ccc(Cl)c(Cl)c2)C[C@@H]2CC[C@H]1N2C [(1R,2R,3S)-2-carbomethoxy-3-(3,4-dichlorophenyl)tropane]
  minimal effective dose: 0.25 mg/kg
